Results as given in publication PMC3543382.

Target: T1, IκB-EYFP (human), P25963
T1 chain: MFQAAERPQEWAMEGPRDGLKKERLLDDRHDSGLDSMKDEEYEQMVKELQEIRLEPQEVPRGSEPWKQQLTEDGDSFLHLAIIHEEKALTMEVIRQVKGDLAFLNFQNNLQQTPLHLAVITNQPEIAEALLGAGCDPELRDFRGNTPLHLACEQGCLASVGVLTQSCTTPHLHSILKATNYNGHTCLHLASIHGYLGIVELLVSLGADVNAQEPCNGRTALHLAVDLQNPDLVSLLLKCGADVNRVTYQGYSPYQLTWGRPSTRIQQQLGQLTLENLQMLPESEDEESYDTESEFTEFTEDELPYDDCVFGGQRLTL
Assay: FRET or BRET; sensitised-emission FRET between ECFP (donor) and EYFP/YFP (acceptor) fusion proteins co-expressed in living Arabidopsis thaliana mesophyll protoplasts; confocal laser scanning microscopy, excitation 458 nm and 514 nm
Settings: remark: other sources report otherwise

B1: RelA-ECFP, Q04206 1-551 (natural protein)
chain: MDELFPLIFPAEPAQASGPYVEIIEQPKQRGMRFRYKCEGRSAGSIPGERSTDTTKTHPTIKINGYTGPGTVRISLVTKDPPHRPHPHELVGKDCRDGFYEAELCPDRCIHSFQNLGIQCVKKRDLEQAISQRIQTNNNPFQVPIEEQRGDYDLNAVRLCFQVTVRDPSGRPLRLPPVLSHPIFDNRAPNTAELKICRVNRNSGSCLGGDEIFLLCDKVQKEDIEVYFTGPGWEARGSFSQADVHRQVAIVFRTPPYADPSLQAPVRVSMQLRRPSDRELSEPMEFQYLPDTDDRHRIEEKRKRTYETFKSIMKKSPFSGPTDPRPPPRRIAVPSRSSASVPKPAPQPYPFTSSLSTINYDEFPTMVFPSGQISQASALAPAPPQVLPQAPAPAPAPAMVSALAQAPAPVPVLAPGPPQAVAPPAPKPTQAGEGTLSEALLQLQFDDEDLGALLGNSTDPAVFTDLASVDNSEFQQLLNQGIPVAPHTTEPMLMEYPEAITRLVTGAQRPPDPAPAPLGAPGLPNGLLSGDEDFSSIADMDFSALLSQISS
- FRET-efficiency: 0.19
